Shown are actives, neighbours in structure and some others; about 3.7% of the full set was active somewhere.
Nrf2 activator = activators of Nrf2 (ARE) signaling. Potency, µM (highest dose often 46.1 µM), hits mostly activators. AREc32 ARE-luciferase reporter (MCF7-derived line), luminescence, 24 h. actives 0.31% (n = 410,000). AID 624171; note: nearly all actives have a fitted effect of over 65% in size
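Luminescent ARE reporter assay in AREc32_Fluc cells: overnight plating at 37 deg C, 24 hr compound incubation, Steady-Glo added, 30 min RT before reading.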
miR-21 reporter = raises the signal of a miR-21 reporter | HeLa miR-21 FLuc reporter, luciferase, 48 h | Potency, µM (highest dose often 38.3 µM) | 340,000 tested, under 10 active | AID 2288; active = well fitted rising curve with a large enough effect; inconclusive = small, poorly fitted or top-dose-only effect; inactive = no such curve, though single readings can be large or run the other way;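 also: miR-21 action dims this reporter so a rising signal means less miR-21 action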
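HeLa miR-21-FLuc reporter line, endogenous miR-21; 2000 cells/well in DMEM/10% FBS; compound titration up to ~40uM final, 48 h, 37 degree Celsius; luciferase detection reagent, 15 min lysis, CCD luminescence.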
Nrf2 block = blocks Nrf2 signaling | Potency, µM (doses to about 46 µM), most hits filed as inhibitors | A549 ARE-Fluc reporter, luciferase luminescence, 18-24 h | actives 2.1% (n = 360,000) | AID 504444; note: nearly all actives have a fitted effect of over 60% in size
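Reporter: ARE-Fluc in A549. Exposure: 18-24 h, 37 °C, 5% CO2, 5% FBS OPTI-MEM. Readouts: fluorescent cytotoxicity (CellTiter-Fluor), then luminescent Nrf2 signal after BugLite.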
A549 viability = A549 cytotoxicity, counter-screen for Nrf2 inhibitors; Potency, µM (titrated, usually from 46 µM), hits mostly inhibitors; AID 504648; actives 0.16% (n = 390,000); A549 ARE-Fluc cells, CellTiter-Fluor viability, 18-24 h
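A549 ARE-Fluc cells in 5% FBS OPTI-MEM, 5000 cells/well, rested 2 h then exposed to compounds in concentration-response for 18-24 h at 37 °C. Viability by CellTiter-Fluor fluorescence (Ex 405/Em 525) after 30 min; luciferase luminescence (BugLite, 15 min, RT) read afterwards.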
ClpP mod = qHTS Assay for Activators of ClpP; ATP-dependent Clp protease proteolytic subunit (Bacillus subtilis (strain 168)), P80244; purified B. subtilis ClpP, FRET peptide cleavage, 20 min; Potency, µM (series often up to 57.5 µM); actives 1.9% (n = 340,000); AID 651965, 2013; active = well fitted falling curve with a large enough effect; inconclusive = small, poorly fitted or top-dose-only effect; inactive = no such curve, though single readings can be large or run the other way; note: the source files actives as falling curves though it sought activators and does not explain the sign; nearly all actives have a fitted effect of over 65% in size
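Purified B. subtilis ClpP, 10 microg/mL final in Tris/HCl pH8 with KCl, BSA, glycerol and Tween-20, cleaved an Abz/nitrotyrosine-quenched decapeptide. Fluorescence (ex 320, em 430) was read at 0 and 20 min at room temperature. Delta was normalized to 5.8 microM ADEP and DMSO/no-enzyme controls.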
TCR act = activates T cell receptor signaling; primary human leukocytes, anti-CD3, IL-2 HTRF, 48 h; Potency, µM (titrated, usually from 9.22 µM), usual class: activators; 330,000 tested, under 10 active; AID 504894
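Compounds are tested in HTS on primary human leukocytes co-incubated with a-CD3 beads for 48 hr. IL-2 output is measured by time-resolved FRET.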
Each line names hits and unclear results; the compound was inactive in the other large screens. Unless noted, calls come from the whole dose curve; as a rule, active = well fitted curve in the direction sought with a large enough effect; inconclusive = small, poorly fitted or top-dose-only effect, or another doubt; inactive = no such curve, though single readings can be large; an effect the other way counts as inactive or inconclusive.

Chains of the proteins cited; added tags and fusions are not shown.
ATP-dependent Clp protease proteolytic subunit (Bacillus subtilis (strain 168)), P80244, UniProt P80244, whole entry, looked up: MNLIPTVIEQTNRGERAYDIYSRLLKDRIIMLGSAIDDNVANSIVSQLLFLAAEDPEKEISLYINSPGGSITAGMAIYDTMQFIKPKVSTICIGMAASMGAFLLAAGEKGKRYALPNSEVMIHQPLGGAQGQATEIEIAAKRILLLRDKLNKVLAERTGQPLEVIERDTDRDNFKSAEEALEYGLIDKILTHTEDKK

C[C@@H]1CN([C@@H](C)CO)C(=O)c2cc(Br)cnc2O[C@H]1CN(C)C(=O)Nc1ccccc1	none (no result: miR-21 reporter, Nrf2 block, A549 viability, TCR act)
COc1ccc2c(c1)c1nc3ccccc3nc1n2CC(=O)OC(C)C	Nrf2 block 4.61µM
C=CCNC(=O)c1ccc2nc(-c3ccccc3)c(-c3ccccc3)nc2c1	ClpP mod 20µM
CC(C)N(C(=O)c1ccc2nc(-c3ccccc3)c(-c3ccccc3)nc2c1)C(C)C	Nrf2 block inconclusive, ClpP mod 28.2µM
CNC(=O)c1ccc2nc(-c3ccccc3)c(-c3ccccc3)nc2c1	Nrf2 block inconclusive (no result: Nrf2 activator, miR-21 reporter, TCR act)
CC(=O)c1cc2c(cc1NC(=O)C1CC=CCC1C(=O)O)OCO2 (centres undefined)	none
CC(=O)c1cc2c(cc1NC(=O)C1CN(C(C)=O)c3ccccc3O1)OCO2 (centres undefined)	Nrf2 block inconclusive, ClpP mod 20µM (no result: miR-21 reporter)
COc1ccc(/C=C/C(=O)N2CCN(c3ccccc3)CC2)cc1S(=O)(=O)N1CCOCC1	Nrf2 block 13µM (no result: ClpP mod)
COc1cc(/C=C/C(=O)Nc2ccc(OC)c(S(=O)(=O)N3CCOCC3)c2)ccc1OC(F)F	Nrf2 block 18.4µM (no result: miR-21 reporter)
COc1ccc(/C=C/C(=O)Nc2ccc(C(C)=O)cc2)cc1S(=O)(=O)N1CCOCC1	none (no result: miR-21 reporter, Nrf2 block, A549 viability, TCR act)
COc1ccc(/C=C/C(=O)N2CCC(C(N)=O)CC2)cc1S(=O)(=O)N1CCOCC1	none
COc1ccc(CC(=O)Nc2cccc(Cl)c2C)cc1S(=O)(=O)N1CCOCC1	none (no result: miR-21 reporter)
COc1ccc(C(=O)Nc2ccc(-c3ccc(C)o3)cc2)cc1S(=O)(=O)N1CCOCC1	Nrf2 block 18.4µM, A549 viability inconclusive
CCOC(=O)c1ccccc1NC(=O)Cc1ccc(OC)c(S(=O)(=O)N2CCOCC2)c1	Nrf2 block 18.4µM (no result: miR-21 reporter, ClpP mod)
CCC1(C)Cc2c(sc3nc(SC)n(-c4ccc(C)cc4)c(=O)c23)CO1 (centres undefined)	none (no result: TCR act)
COc1ccc(NC(=O)COC(=O)/C=C/c2ccc(OC)c(S(=O)(=O)N3CCOCC3)c2)cc1	Nrf2 block inconclusive
COc1ccc(/C=C/C(=O)OCC(=O)Nc2ccc(C)cc2)cc1S(=O)(=O)N1CCOCC1	ClpP mod 7.94µM
Cc1ccc(O)c(NC(=S)NC(=O)/C=C/c2ccccc2)c1	Nrf2 activator 11.2µM
CCCN(C(=O)CCc1nc(-c2ccc(C)cc2)no1)c1ccc(OCC)cc1	none (no result: TCR act)
COc1ccc(-c2nnc3c4ccccc4c(C)nn23)cc1	Nrf2 activator 4.47µM, Nrf2 block inconclusive
Cc1nn2c(-c3ccco3)nnc2c2ccccc12	Nrf2 activator 0.562µM
COC(=O)c1cc(C)c(C)cc1NC1OC(CO)C(O)C1O (centres undefined)	ClpP mod 3.55µM (no result: miR-21 reporter)
COc1ccc(NC(=O)c2cnn(-c3ccc(C)cc3)c2-n2cccc2)cc1Cl	none (no result: TCR act)
CCC(NC(=O)c1cc(COc2ccc(F)cc2Cl)on1)c1ccncc1 (centres undefined)	Nrf2 block 16.4µM, A549 viability inconclusive
CCC(NC(=O)c1cc(COc2cncc(Cl)c2)on1)c1ccncc1 (centres undefined)	Nrf2 block inconclusive
COCCC(=O)N1CCC(n2nccc2NC(=O)CCc2ccccc2)CC1	none (no result: ClpP mod)
O=c1c2sc(-c3ccccc3)cc2nc2n1CCC2	Nrf2 block inconclusive, ClpP mod 22.4µM
CCOc1ccc(N2CC(C(=O)Nc3ccc(OC)c(S(=O)(=O)N4CCCCC4)c3)CC2=O)cc1 (centres undefined)	ClpP mod 28.2µM
COc1ccc(NC(=O)C2CC(=O)N(c3ccc(C)cc3)C2)cc1S(=O)(=O)N1CCCCC1 (centres undefined)	none (no result: miR-21 reporter, Nrf2 block, A549 viability, TCR act)
CCOc1ccc(N(CC)S(=O)(=O)N2CCCC(C(=O)Nc3ccc(OC)c(OC)c3)C2)cc1 (centres undefined)	Nrf2 block 20.6µM (no result: TCR act)
COc1ccc(NC(=O)CCOc2ccccc2F)cc1S(=O)(=O)N1CCCCC1	Nrf2 block 20.6µM (no result: miR-21 reporter, ClpP mod)

Screening results deposited in PubChem BioAssay by National Center for Advancing Translational Sciences (NCATS).
